pIC50: −log10 of the molar value.
Molecular target: human JAK1 (Homo sapiens, UniProt P23458)
Assay: In vitro JAK kinase assay (Example D, HTRF), JAK1
Assay type: biochemical
Settings: 1 mM ATP

pIC50: > 8.00
SMILES: CN(C)Cc1cc(F)cc(OC2CCN(CC(CC#N)n3cc(-c4ncnc5[nH]ccc45)cn3)CC2)c1 (single isomer, unassigned) [compound 14, 4-(4-{3-[(dimethylamino)meth-yl]-5-fluorophenoxy}piperidin-1-yl)-3-[4-(7H-pyrrolo[2,3-d]pyrimidin-4-yl)-1H-pyrazol-1-yl]butanenitrile]

From patent publication US9732097B2, “Process for the synthesis of a phosphoinositide 3-kinase inhibitor” (Incyte Corporation, priority 2015, dated 2017)
